How the values were obtained:
[1] = biological target: human MPC1L/MPC2 hetero-dimer (Homo sapiens, UniProt O95563+P0DKB6); experiment: Inhibition of [14C]-pyruvate homo-exchange in MPC1L/MPC2 proteoliposomes; type: biochemical; details: read-out: IC50 of pyruvate transport inhibition, 50 μM [14C]-pyruvate homo-exchange, mean ± s.d., listed as compound 2
[2] = biological target: human MPC1L/MPC2 complex (Homo sapiens, UniProt O95563+P0DKB6); experiment: CPM thermostability shift assay, purified MPC1L/MPC2; type: binding; details: inhibitor 100 μM
Procedure: The assessment of ligand binding was performed via shifts in protein thermostability upon binding using thermal denaturation on a rotary quantitative PCR (qPCR) instrument (Qiagen Rotor-Gene Q 2plex HRM, Venlo, Netherlands), as previously described. In this method, cysteine residues, buried within the protein structure, become solvent-exposed during denaturation in a temperature ramp and then react with 7-diethylamino-3-(4-maleimidophenyl)-4-methylcoumarin (CPM) to form fluorescent-adducts. Briefly, a CPM working solution was prepared by diluting the CPM stock (5 mg/mL in dimethyl sulfoxide) 50-fold into assay buffer (20 mM Tris–HCl, pH 7.4, 150 mM NaCl, 0.1% (w/v) LMNG, 0.1 mg/mL TOCL) and incubated for 10 min at room temperature. In each analysis, performed in duplicates or triplicates, 3 μg of purified MPC was diluted into 45 μL of assay buffer containing the desired concentration of the inhibitor then incubated for 10 min on ice. Next, 5 μL of the CPM working solution were added. Samples were incubated on ice for an additional 10 min then subjected to a temperature ramp of 5.6 °C/min. The fluorescence increase was monitored with the HRM channel of the instrument (excitation at 440–480 nm, emission at 505–515 nm). Unfolding profiles were analysed with the Rotor-Gene Q software 2.3, and the peaks of their derivatives were used to determine the apparent melting temperature.

Sequences of proteins named here, by UniProt entry; tags and fusion partners are left off. Residues count along the entry.
UniProt O95563, 2-127 limits assumed: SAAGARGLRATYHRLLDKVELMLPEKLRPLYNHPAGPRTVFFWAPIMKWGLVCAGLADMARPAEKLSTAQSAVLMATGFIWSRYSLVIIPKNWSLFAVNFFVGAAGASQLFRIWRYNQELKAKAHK
UniProt P0DKB6, 2-136 limits assumed: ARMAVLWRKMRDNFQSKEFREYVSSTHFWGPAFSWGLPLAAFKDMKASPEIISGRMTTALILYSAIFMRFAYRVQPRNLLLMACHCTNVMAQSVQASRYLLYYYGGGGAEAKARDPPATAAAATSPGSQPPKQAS

SMILES: N#CC(=Cc1ccc(-c2ccccc2)o1)C(=O)O
- IC50 [1]: 12.4 nM
- ∆Tm, CPM assay (thermal shift compared to no-ligand control) [2]: 12.1 ± 1.1 °C
- Tm, CPM assay ([2]; unliganded 51.3 ± 0.2, mean ± s.d., 3 biological repeats): 63.4 ± 0.9 °C

— PMC8968063, “Key features of inhibitor binding to the human mitochondrial pyruvate carrier hetero-dimer” (Molecular Metabolism, 2022)
